{"source": "paper PMC12069340", "about": "(Frontiers in Cellular and Infection Microbiology, 2025)", "tested_on": "influenza virus PR8", "data": [{"smiles": "NC(=O)c1ncn([C@@H]2O[C@H](CO)[C@@H](O)[C@H]2O)n1", "note": "[ribavirin, Ribavirin]", "values": [{"measurement": "stage of viral replication inhibited", "value": "middle"}]}]}
